Results reported in PubChem BioAssay AID624168 (Sanford-Burnham Center for Chemical Genomics, 2012).
This is a selection; strong and weak results do not stand in their true shares. Some of these compounds have results that are not shown, active ones among them. The source made the active and inactive calls.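 Rule for the calls: active = activation of at least 8% versus controls, or a plate z-score of at least 8; inactive = the rest.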

Experiment: activators of alpha-DG glycosylation, primary screen, uHTS, Pro5-aDG cells, AlphaScreen (AID 624168);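 note: Pro5 are CHO cells carrying HIG-tagged alpha-DG that lacks glycosylation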
Details: alpha-DG glycosylation AlphaScreen (IIH6), at 10 µM, active compounds read high, 0% Pro5, 100% B10-LARGE cell signal
For `C=CCN1CCN(CCOC(=O)C(O)(c2ccccc2)c2ccccc2)CC1`, the activation was inactive: 0.8%.
With `O=C(NCC1(N2CCCCC2)CCCCC1)c1cc(F)c(F)cc1Cl` the activation was inactive: 0%.
In the case of `COc1ccc(C(=O)NCC2(N(C)C)CCCCC2)cc1`, the activation is reported as inactive: 0%.
For `Cc1cc(C(=O)NCC2(N3CCCCC3)CCCCC2)ccc1[N+](=O)[O-]`, the activation was inactive: -0.1%.
For `CCN1CCCC(OC(=O)C2(O)c3ccccc3C=Cc3ccccc32)C1` (stereo unspecified), the activation was inactive: 0.2%.
With `O=C(NCC1(N2CCCCC2)CCCCC1)c1cccc(Br)c1` the activation was inactive: 0%.
In the case of `Cc1ccccc1C(=O)NCC1(N2CCCCC2)CCCCC1`, the activation is reported as inactive: -0.1%.
With `CN(C)C1CCCC1OC(=O)C(O)(c1ccccc1)c1ccccc1` (stereo unspecified) the activation was inactive: -0.3%.
With `CN(C)c1ccc(C(=O)NCC2(N(C)C)CCCCC2)cc1` the activation was inactive: -0.1%.
In the case of `CCN(CC)CC(C)C(C)OC(=O)C(O)(c1ccccc1)c1ccccc1` (stereo unspecified), the activation is reported as inactive: 0%.
In the case of `COc1cc(SC)ccc1C(=O)NCC1(N(C)C)CCCCC1`, the activation is reported as inactive: -0.1%.
In the case of `CC(C)N1C(=O)CC2(CCN(CCOC(=O)C(O)(c3ccccc3)c3ccccc3)CC2)C1=O`, the activation is reported as inactive: -0.1%.
With `Cc1ccc(C(=O)NCC2(N3CCCCC3)CCCCC2)cc1` the activation was inactive: -0.2%.
With `O=C(NCC1(N2CCCCC2)CCCCC1)c1cc([N+](=O)[O-])ccc1Cl` the activation was inactive: 0%.
For `CN1[C@@H]2CC[C@H]1CC(OC(=O)C(O)(c1ccccc1)c1ccccc1)C2` (stereo partly specified), the activation was inactive: 0%.
In the case of `C=C(C)C#CC(O)(C(=O)OC1CCN(C)CC1)c1ccccc1` (stereo unspecified), the activation is reported as inactive: 0.2%.
In the case of `COc1ccc(Br)c(C(=O)NCC2(N3CCCCC3)CCCCC2)c1`, the activation is reported as inactive: 0.1%.
For `CC(C)Oc1ccc(C(=O)NCC2(N(C)C)CCCCC2)cc1`, the activation was inactive: 0%.
In the case of `O=C(OCCN1CCCC1)C(O)(c1ccccc1)c1ccccc1`, the activation is reported as inactive: 0.1%.
For `CN(C)c1cccc(C(=O)NCC2(N(C)C)CCCCC2)c1`, the activation was inactive: -0.3%.
For `O=C(OC1CN2CCC1CC2)C(CO)(c1ccccc1)c1ccccc1` (stereo unspecified), the activation was inactive: -0.1%.
In the case of `COc1cccc(C(=O)NCC2(N3CCCCC3)CCCCC2)c1`, the activation is reported as inactive: -0.2%.
With `COc1ccc(Cl)cc1C(=O)NCC1(N(C)C)CCCCC1` the activation was inactive: 0.1%.
With `O=C(NCC1(N2CCCCC2)CCCCC1)c1cccc(Cl)c1` the activation was inactive: -0.1%.
In the case of `CN(C)C1(CNC(=O)c2ccc(Br)cc2)CCCCC1`, the activation is reported as inactive: -0.1%.
In the case of `COc1cc(C(=O)NCC2(N(C)C)CCCCC2)c([N+](=O)[O-])cc1OC`, the activation is reported as inactive: -0.1%.
